# Measured values from ChEMBL document CHEMBL2440018 (J Med Chem, 2013).
# Sequences of proteins named here, by UniProt entry; tags and fusion partners are left off. A change or cut given only in a name is not applied to a line headed by its entry.
# UniProt P08253: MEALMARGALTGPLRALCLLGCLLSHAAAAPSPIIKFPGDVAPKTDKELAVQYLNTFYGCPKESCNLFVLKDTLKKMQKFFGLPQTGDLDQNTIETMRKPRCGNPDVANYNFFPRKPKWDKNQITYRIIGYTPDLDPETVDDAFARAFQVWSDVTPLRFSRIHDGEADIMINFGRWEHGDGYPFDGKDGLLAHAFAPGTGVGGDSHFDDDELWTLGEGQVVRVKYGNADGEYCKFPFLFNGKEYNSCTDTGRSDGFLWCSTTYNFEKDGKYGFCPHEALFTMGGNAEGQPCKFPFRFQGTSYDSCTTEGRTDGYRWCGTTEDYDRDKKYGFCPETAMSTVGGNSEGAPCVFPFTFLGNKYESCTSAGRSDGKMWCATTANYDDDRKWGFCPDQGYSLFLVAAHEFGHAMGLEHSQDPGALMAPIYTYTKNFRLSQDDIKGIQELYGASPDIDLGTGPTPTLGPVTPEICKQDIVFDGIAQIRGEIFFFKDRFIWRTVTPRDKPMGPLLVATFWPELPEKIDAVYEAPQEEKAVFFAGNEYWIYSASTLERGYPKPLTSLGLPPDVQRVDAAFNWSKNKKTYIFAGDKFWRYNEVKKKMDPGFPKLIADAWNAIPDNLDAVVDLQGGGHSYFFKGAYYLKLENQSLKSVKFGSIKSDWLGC
# UniProt P14780: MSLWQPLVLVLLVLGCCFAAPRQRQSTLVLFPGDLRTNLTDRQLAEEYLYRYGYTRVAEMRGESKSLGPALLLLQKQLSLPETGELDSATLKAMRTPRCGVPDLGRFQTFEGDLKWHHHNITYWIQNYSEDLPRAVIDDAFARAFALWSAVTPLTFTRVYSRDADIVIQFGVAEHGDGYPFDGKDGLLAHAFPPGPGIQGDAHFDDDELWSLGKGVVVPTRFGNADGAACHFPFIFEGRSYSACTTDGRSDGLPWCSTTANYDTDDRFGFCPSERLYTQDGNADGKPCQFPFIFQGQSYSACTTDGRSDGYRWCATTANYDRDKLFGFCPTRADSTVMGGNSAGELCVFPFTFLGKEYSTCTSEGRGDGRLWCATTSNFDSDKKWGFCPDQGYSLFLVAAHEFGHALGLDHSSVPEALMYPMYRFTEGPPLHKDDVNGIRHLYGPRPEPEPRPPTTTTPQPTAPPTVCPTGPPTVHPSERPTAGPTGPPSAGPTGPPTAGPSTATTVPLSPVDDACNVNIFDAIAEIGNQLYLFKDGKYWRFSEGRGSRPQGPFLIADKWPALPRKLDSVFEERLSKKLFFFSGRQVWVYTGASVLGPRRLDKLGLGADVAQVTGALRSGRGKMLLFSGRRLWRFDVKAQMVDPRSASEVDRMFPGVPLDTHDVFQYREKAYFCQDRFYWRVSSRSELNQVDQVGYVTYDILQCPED
# Target: MMP-2/MMP-9 (Homo sapiens) (UniProt P08253+P14780)
# Assay: Selectivity ratio of Ki for human recombinant MMP-9 catalytic domain to Ki for human recombinant MMP-2
smiles,measurement,value
CCOC(=O)Nc1ccc(Oc2ccc(S(=O)(=O)CC3CS3)cc2)cc1 (stereo unspecified),Ratio Ki,2
